Data as given in patent publication US5739334A (Istituto Ricerca Francesco Angelini S.p.A., priority 1992, dated 1998).

Tested on: serotonin reuptake
Assay: Chemical bond studies: serotonin reuptake (% inhibition)
Type: binding

O=c1n(CCCN2CCN(c3cccc(Cl)c3)CC2)nc2ccccn12 [trazodone]
% inhibition, serotonin reuptake (C = 10^-5 M): 96.0%
% inhibition, serotonin reuptake (C = 10^-7 M): less than 45.0%
